The results in this text go back to patent US12465652B2 (AMGEN INC., priority 2017, dated 2025).

Sequences of proteins named here, by UniProt entry; tags and fusion partners are left off. Residues count along the entry.
UniProt P43220, 24-463 limits assumed: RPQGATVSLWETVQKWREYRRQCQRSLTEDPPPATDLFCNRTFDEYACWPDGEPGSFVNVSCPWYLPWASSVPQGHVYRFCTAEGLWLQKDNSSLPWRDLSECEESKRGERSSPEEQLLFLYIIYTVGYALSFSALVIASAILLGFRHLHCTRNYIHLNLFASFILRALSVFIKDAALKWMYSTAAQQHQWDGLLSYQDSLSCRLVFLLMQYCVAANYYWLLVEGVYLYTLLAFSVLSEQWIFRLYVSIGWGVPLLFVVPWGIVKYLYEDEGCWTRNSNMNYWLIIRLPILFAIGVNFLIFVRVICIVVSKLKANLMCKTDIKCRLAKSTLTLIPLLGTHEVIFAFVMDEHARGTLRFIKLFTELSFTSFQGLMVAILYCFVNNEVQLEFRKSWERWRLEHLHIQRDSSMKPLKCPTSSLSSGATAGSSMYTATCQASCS

SMILES strings stand for the structures.

One assay has as its target hGLP1R (Homo sapiens, UniProt P43220). The assay can be described thus: hGLP1R EC50 (pM). An excerpt:
Table printed on a drawing sheet, FIG. 2
Head of the field: hGLP1R EC50 (pM)
Where the first naming reader finds the target: head: hGLP1R EC50 (pM)

Assay [1] addresses T1, human GLP-IR (Homo sapiens, UniProt P43220). The assay can be described thus: GLP1 activity | EC50 (pM). An excerpt: Where the first naming reader finds the target: passage: CHOK1 cells stably expressing the human GLP-IR were used to measure peptide or recombinant fusion-induced cAMP production
For assay [2], the target named is T1, human GLP-IR. The assay can be described thus: GLP1 activity | EC50 (M). An excerpt:
Table printed on a drawing sheet, FIG. 1A Head of the field: GLP1 activity | EC50 (M) The patent's description of the figure: FIG. 1A-1B: Synthetic Peptides (FIG. 1A discloses SEQ ID NOS 3948 and 3275-3298 and FIG. 1B discloses SEQ ID NOS 3948 and 3299-3302, all respectively, in order of appearance) First copying reader's note: The first head row prints a reference sequence (residues at positions 7-35) above the position numbers; two fully empty rows separate groups of peptides. Where the first naming reader finds the target: passage: CHOK1 cells stably expressing the human GLP-IR were used to measure peptide or recombinant fusion-induced cAMP production

A word on the EC50: it is the concentration giving half of the maximal effect. Read a high EC50 as a less potent agent. Molecule `CC[C@H](C)[C@H](NC(=O)[C@H](Cc1ccccc1)NC(=O)[C@H](CCC(=O)O)NC(=O)[C@H](CCCCN)NC(=O)[C@H](C)NC(=O)[C@H](C)NC(=O)[C@H](CCC(N)=O)NC(=O)CNC(=O)[C@H](CCC(=O)O)NC(=O)[C@H](CC(C)C)NC(=O)[C@H](Cc1ccc(O)cc1)NC(=O)[C@H](CO)NC(=O)[C@H](CO)NC(=O)[C@@H](NC(=O)[C@H](CC(=O)O)NC(=O)[C@H](CO)NC(=O)[C@@H](NC(=O)[C@H](Cc1ccccc1)NC(=O)[C@@H](NC(=O)CNC(=O)[C@@H](N)CCC(=O)O)[C@@H](C)O)[C@@H](C)O)C(C)C)C(=O)N[C@@H](C)C(=O)N[C@@H](Cc1c[nH]c2ccccc12)C(=O)N[C@@H](CC(C)C)C(=O)N[C@H](C(=O)N[C@@H](CCCCN)C(=O)NCC(=O)N[C@@H](CCCNC(=N)N)C(=O)NCC(=O)O)C(C)C` [3161006#1, EGTFTSDVSSYLEGQAAKEFIAWLVKGRG] registered an EC50 on hGLP1R of 40 nM.

For the molecule `CC[C@H](C)[C@H](NC(=O)[C@H](Cc1ccccc1)NC(=O)[C@H](CCC(=O)O)NC(=O)[C@H](CCCCN)NC(=O)[C@H](C)NC(=O)[C@H](C)NC(=O)[C@H](CCC(N)=O)NC(=O)CNC(=O)[C@H](CCC(=O)O)NC(=O)[C@H](CC(C)C)NC(=O)[C@H](Cc1ccc(O)cc1)NC(=O)[C@H](CO)NC(=O)[C@H](CO)NC(=O)[C@@H](NC(=O)[C@H](CC(=O)O)NC(=O)[C@H](CO)NC(=O)[C@@H](NC(=O)[C@H](Cc1ccccc1)NC(=O)[C@@H](NC(=O)CNC(=O)[C@H](CCC(=O)O)NC(=O)[C@H](C)N)[C@@H](C)O)[C@@H](C)O)C(C)C)C(=O)N[C@@H](C)C(=O)N[C@@H](Cc1c[nH]c2ccccc12)C(=O)N[C@@H](CC(C)C)C(=O)N[C@H](C(=O)N[C@@H](CCCCN)C(=O)NCC(=O)N[C@@H](CCCNC(=N)N)C(=O)NCC(=O)O)C(C)C` [3161005#1, AEGTFTSDVSSYLEGQAAKEFIAWLVKGRG], the midpoint of the response at hGLP1R, the EC50, lay at 3 nM.

In turn, `CC[C@H](C)[C@H](NC(=O)[C@H](Cc1ccccc1)NC(=O)[C@H](CCC(=O)O)NC(=O)[C@H](CCCCN)NC(=O)[C@H](C)NC(=O)[C@H](C)NC(=O)[C@H](CCC(N)=O)NC(=O)CNC(=O)[C@H](CCC(=O)O)NC(=O)[C@H](CC(C)C)NC(=O)[C@H](Cc1ccc(O)cc1)NC(=O)[C@H](CO)NC(=O)[C@H](CO)NC(=O)[C@@H](NC(=O)[C@H](CC(=O)O)NC(=O)[C@H](CO)NC(=O)[C@@H](NC(=O)[C@H](Cc1ccccc1)NC(=O)[C@@H](NC(=O)CNC(=O)[C@H](CCC(N)=O)NC(=O)CNC(=O)[C@@H](N)Cc1c[nH]cn1)[C@@H](C)O)[C@@H](C)O)C(C)C)C(=O)N[C@@H](C)C(=O)N[C@@H](Cc1c[nH]c2ccccc12)C(=O)N[C@@H](CC(C)C)C(=O)N[C@H](C(=O)N[C@@H](CCCCN)C(=O)NCC(=O)N[C@@H](CCCNC(=N)N)C(=O)NCC(=O)O)C(C)C` [3161012#1, HGQGTFTSDVSSYLEGQAAKEFIAWLVKGRG] gave a concentration for a half-maximal effect (EC50) on human GLP-IR [1] of 4.1 pM.

Molecule `CC[C@H](C)[C@H](NC(=O)[C@H](Cc1ccccc1)NC(=O)[C@H](CCC(=O)O)NC(=O)[C@H](CCCCN)NC(=O)[C@H](C)NC(=O)[C@H](C)NC(=O)[C@H](CCC(N)=O)NC(=O)CNC(=O)[C@H](CCC(=O)O)NC(=O)[C@H](CC(C)C)NC(=O)[C@H](Cc1ccc(O)cc1)NC(=O)[C@H](CO)NC(=O)[C@H](CO)NC(=O)[C@@H](NC(=O)[C@H](CC(=O)O)NC(=O)[C@H](CO)NC(=O)[C@@H](NC(=O)[C@H](Cc1ccccc1)NC(=O)[C@@H](NC(=O)CNC(=O)[C@H](CC(C)C)NC(=O)CNC(=O)[C@@H](N)Cc1c[nH]cn1)[C@@H](C)O)[C@@H](C)O)C(C)C)C(=O)N[C@@H](C)C(=O)N[C@@H](Cc1c[nH]c2ccccc12)C(=O)N[C@@H](CC(C)C)C(=O)N[C@H](C(=O)N[C@@H](CCCCN)C(=O)NCC(=O)O)C(C)C` [3166735#1, HGLGTFTSDVSSYLEGQAAKEFIAWLVKG] yielded an EC50 at human GLP-IR [2] of 0.0965 nM.
